# From article PMC10128061, “Targeting Sterylglucosidase A to Treat Aspergillus fumigatus Infections” (mBio, 2023)
# System: human lung epithelial cancer cell line A549
# Conditions: A549 cells, 24 h, MTT
row,Structure (SMILES),LD50 [µM]
1,CNc1cc(C)nc(NCc2ccc3[nH]c(C)c(C)c3c2)n1,75.7
2,CCc1[nH]c2ccc(CNCc3cc(OC)c4c(c3)OCO4)cc2c1C,31.5
3,CCNc1ccnc(NCc2cccnc2Oc2ccc(F)cc2F)n1,22.4
4,Cc1[nH]c2ccc(CNc3nccc(N)n3)cc2c1C,181.3
5,CC(C)Nc1ccnc(NCc2cccnc2Oc2ccc(F)cc2F)n1,19.6
6,Cc1cc2c(N3CCCC(c4nccn4CC4CCC4)C3)ncnc2s1 (centres unmarked),87.1
7,COc1cccc(-n2cc(CN(C)Cc3ccc(O)c(Cl)c3)cn2)c1,44.7
8,CCc1[nH]c2ccc(CNc3nccc(N4CCCC(O)C4)n3)cc2c1C (centres unmarked),89.7
